# According to publication PMC12836348, “Alanine Mutagenesis Identifies Specific Amino Acids of Nemertide Alpha‑1 Activity and Its Binding to Target Receptors” (Journal of Natural Products, 2025):
# Sequences of proteins named here, by UniProt entry; tags and fusion partners are left off.
# UniProt Q14524, whole entry: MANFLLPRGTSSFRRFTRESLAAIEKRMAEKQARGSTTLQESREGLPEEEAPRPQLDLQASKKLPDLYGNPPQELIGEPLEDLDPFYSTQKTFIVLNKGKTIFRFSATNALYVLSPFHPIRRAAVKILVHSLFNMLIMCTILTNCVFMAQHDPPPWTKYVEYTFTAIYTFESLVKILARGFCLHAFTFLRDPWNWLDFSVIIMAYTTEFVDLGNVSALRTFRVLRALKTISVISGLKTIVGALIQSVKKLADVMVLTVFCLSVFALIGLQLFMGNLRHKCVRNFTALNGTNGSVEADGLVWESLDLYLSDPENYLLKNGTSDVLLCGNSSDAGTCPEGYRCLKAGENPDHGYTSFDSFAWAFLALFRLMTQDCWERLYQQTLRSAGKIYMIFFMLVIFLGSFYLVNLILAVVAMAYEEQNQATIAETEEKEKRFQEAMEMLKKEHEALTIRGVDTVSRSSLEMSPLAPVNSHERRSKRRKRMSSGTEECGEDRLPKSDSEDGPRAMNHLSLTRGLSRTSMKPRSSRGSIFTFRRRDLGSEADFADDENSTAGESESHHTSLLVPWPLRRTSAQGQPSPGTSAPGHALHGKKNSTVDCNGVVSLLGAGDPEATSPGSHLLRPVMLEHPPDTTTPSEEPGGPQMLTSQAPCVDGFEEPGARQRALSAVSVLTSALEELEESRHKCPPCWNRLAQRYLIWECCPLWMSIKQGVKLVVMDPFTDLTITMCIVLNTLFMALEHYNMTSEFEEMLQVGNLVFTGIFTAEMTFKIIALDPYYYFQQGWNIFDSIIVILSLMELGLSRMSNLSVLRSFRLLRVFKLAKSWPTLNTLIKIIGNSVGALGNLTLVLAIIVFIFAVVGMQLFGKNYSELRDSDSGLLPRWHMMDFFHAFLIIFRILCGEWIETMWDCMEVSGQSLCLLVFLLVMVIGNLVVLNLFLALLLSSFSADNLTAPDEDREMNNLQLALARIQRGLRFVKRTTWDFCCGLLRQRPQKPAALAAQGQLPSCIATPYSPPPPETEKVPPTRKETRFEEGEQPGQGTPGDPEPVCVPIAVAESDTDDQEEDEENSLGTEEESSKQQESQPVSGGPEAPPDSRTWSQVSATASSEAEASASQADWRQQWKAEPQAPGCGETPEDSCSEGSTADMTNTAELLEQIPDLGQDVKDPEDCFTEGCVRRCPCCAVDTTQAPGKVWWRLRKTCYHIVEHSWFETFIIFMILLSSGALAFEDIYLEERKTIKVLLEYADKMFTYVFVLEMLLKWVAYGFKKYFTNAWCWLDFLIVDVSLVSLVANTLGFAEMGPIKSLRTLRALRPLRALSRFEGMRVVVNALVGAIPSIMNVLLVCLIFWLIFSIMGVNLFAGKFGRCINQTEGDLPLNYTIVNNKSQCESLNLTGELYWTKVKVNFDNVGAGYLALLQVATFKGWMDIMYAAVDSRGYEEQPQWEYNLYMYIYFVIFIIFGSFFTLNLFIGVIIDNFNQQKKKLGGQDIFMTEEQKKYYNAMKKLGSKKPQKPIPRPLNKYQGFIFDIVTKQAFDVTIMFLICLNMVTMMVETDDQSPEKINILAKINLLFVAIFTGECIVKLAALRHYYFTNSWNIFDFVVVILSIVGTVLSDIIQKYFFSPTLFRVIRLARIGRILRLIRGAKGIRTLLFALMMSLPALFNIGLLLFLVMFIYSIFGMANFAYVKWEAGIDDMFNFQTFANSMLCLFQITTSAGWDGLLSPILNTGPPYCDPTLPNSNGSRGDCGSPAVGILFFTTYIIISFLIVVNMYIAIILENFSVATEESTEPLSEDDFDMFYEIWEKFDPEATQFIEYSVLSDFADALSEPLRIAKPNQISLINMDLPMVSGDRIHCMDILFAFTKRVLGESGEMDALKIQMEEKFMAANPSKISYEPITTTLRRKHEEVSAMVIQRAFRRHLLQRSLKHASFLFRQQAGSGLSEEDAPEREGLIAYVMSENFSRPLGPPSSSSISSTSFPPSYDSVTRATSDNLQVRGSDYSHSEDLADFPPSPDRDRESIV
# Tests used:
# hNaV1.5 = target: T1, hNaV1.5 (Homo sapiens, UniProt Q14524); test: Two-electrode voltage clamp, Nav1.5 in Xenopus laevis oocytes; format: cell-based; design: key to effect on Nav1.5: “+” means tested and produced effect; “–“ means tested but no effect; details: n ≥ 3
# T1 construct: expressed in transfected cells; host or cells: Xenopus laevis oocytes (cRNA injection)
# BiNav = test: Ion channel panel, BiNav; format: cell-based, Bombus impatiens; design: key: “+” means tested and produced effect; “–“ means tested but no effect; details: S12A at 5 μM; Xenopus oocytes, n ≥ 3
# Experimental: For the expression of NaV channels (hNav1.1, rNaV1.2, rNaV1.3, rNaV1.4, hNaV1.5, hNaV1.6, hNav1.7, and the insect channel BgNaV1) in Xenopus laevis oocytes, the linearized plasmids were transcribed using the T7 or SP6 mMESSAGE-mMACHINE transcription kit (Ambion, Carlsbad, CA, USA). The harvesting of stage V and VI oocytes from an anaesthetized female X. laevis frog was described previously. , Oocytes were injected with 50 nL of cRNA at a concentration of 1 ng/nL using a microinjector (Drummond Scientific, Broomall, PA, USA). The oocytes were incubated in a solution containing 96 mM NaCl, 2 mM KCl, 1.8 mM CaCl2, 2 mM MgCl2, and 5 mM HEPES (pH 7.4), supplemented with 50 mg/L gentamycin sulfate. […] Whole-cell currents from oocytes were recorded 1–4 days after injection. […]
# To assess the concentration–response relationships, data were fitted with the Hill equation: y = 100/[1 + (EC50/[toxin])^ h ], where y is the amplitude of the toxin-induced effect (y = I 30 ms/I peak where I 30 ms is the current value at 30 ms in the presence of toxin and I peak is the peak current amplitude in control conditions), EC50 is the toxin concentration at half-maximal efficacy, [toxin] is the toxin concentration, and h is the Hill coefficient. […] ASIC1a currents were measured in ND96 solutions at a pH of 7.4 and 4.5, at a holding potential of −70 mV during 400 s, and the data were filtered at 20 Hz. […]
# Cav3.3 = test: Ion channel panel, Cav3.3; format: cell-based; design: key: “+” means tested and produced effect; “–“ means tested but no effect; details: S12A at 5 μM; Xenopus oocytes, n ≥ 3
# ASIC1a = test: Ion channel panel, ASIC1a; format: cell-based; design: key: “+” means tested and produced effect; “–“ means tested but no effect; details: S12A at 5 μM; ND96 pH 7.4 and 4.5, −70 mV, n ≥ 3
# TRPA1 = test: Ion channel panel, TRPA1; format: cell-based; design: key: “+” means tested and produced effect; “–“ means tested but no effect; details: S12A at 5 μM; −90 mV, 50 μM mustard oil, n ≥ 3
smiles,measurement,setting,value
CC[C@H](C)[C@@H]1NC(=O)[C@@H](NC(=O)CN)CSSC[C@@H]2NC(=O)[C@@H]3CSSC[C@@H](C(=O)N[C@@H](CC(N)=O)C(=O)N4C[C@H](O)C[C@H]4C(=O)N4C[C@H](O)C[C@H]4C(=O)N[C@@H](CC(N)=O)C(=O)N[C@@H](CCC(N)=O)C(=O)O)NC(=O)[C@H](CCCCN)NC(=O)[C@H](Cc4ccccc4)NC(=O)[C@H](CC(N)=O)NC(=O)[C@H](Cc4c[nH]c5ccccc45)NC(=O)CNC(=O)[C@H](CSSC[C@H](NC(=O)[C@H](Cc4ccccc4)NC(=O)[C@H](CO)NC(=O)CNC(=O)[C@H]([C@@H](C)O)NC(=O)[C@H](C)NC1=O)C(=O)N[C@@H]([C@@H](C)O)C(=O)N[C@@H](CC(C)C)C(=O)N[C@@H](C)C(=O)N[C@@H](CCCCN)C(=O)NCC(=O)N3)NC(=O)[C@H](CC(N)=O)NC(=O)[C@H](CCCCN)NC(=O)[C@H]([C@@H](C)O)NC2=O [Peptide S12A],effect on Nav1.5,"hNaV1.5; S12A at 5 μM, Xenopus oocytes",–
same,EC50 Nav1.5,"hNaV1.5; ex vivo, two-electrode voltage clamp in Xenopus laevis oocytes, Hill fit, highest tested concentration 50 μM",no detectable activity; also recorded: inactive at the tested concentration
same,effect on BiNav,BiNav,+
same,effect on Cav3.3,Cav3.3,–
same,effect on ASIC1a,ASIC1a,–
same,effect on TRPA1,TRPA1,–

# Entries after “also recorded” stand apart in the source; their conditions may differ.
